Drawing on patent US20200299317A1, “Manufacturing Method of Ferric Citrate” (Tokuyama Corporation, priority 2018, published 2020), this text covers Specific surface area for 23 substances.

The data set is described as follows: Specific surface area of ferric citrate, constant-volume nitrogen adsorption method, BET. In kind it is physicochemical. On the procedure: The water-soluble organic solvent content in ferric citrate of Examples and Comparative examples were measured by gas chromatography (GC). A sample was introduced into GC by using a headspace (HS). The purity of ferric citrate (hereinafter, may be simply referred to as the “purity”) was measured by high performance chromatography (HPLC), and the specific surface area was measured by a nitrogen absorption method. The apparatus used in each measurement and measurement conditions are as follows.
The specific surface area of ferric citrate was measured under the following conditions.
Apparatus: specific surface area measuring apparatus (made by MicrotracBEL Corp.)
Measuring method: constant-volume nitrogen adsorption method
Sample volume: approximately 100 mg
Pretreatment temperature: 40° C.
Pretreatment time: 1 hour
In the following examples and comparative examples, when the partial pressure of nitrogen was within the range of 0.1 to 0.3, a nitrogen absorption volume at each partial pressure was measured under the above conditions, and the specific surface area of ferric citrate was analyzed and calculated from the partial pressure and the nitrogen adsorption volume by a BET method.

Setting [1] is: after reduced-pressure drying only (30° C., then 70° C. for 20 hours), no humidity control drying.
[2] abbreviates: ferric citrate after reduced-pressure drying followed by humidity control drying.

In turn, “ferric citrate [Comparative Example 1, reference compound]” displayed a Specific surface area under setting [1] of 40.8 m^2/g.
As for ferric citrate [Example 5], under setting [2], the Specific surface area stood at 35.6 m^2/g.
“ferric citrate [Comparative example 2, reference compound]” gave a Specific surface area under setting [1] of 88.9 m^2/g.
“ferric citrate [Comparative example 3, reference compound]”: the Specific surface area under setting [1] came out at 24.9 m^2/g.
With ferric citrate [Example 6], the Specific surface area under setting [2] is 37.9 m^2/g.
Regarding ferric citrate [Example 9], the Specific surface area under setting [2] came to 38.4 m^2/g.
“ferric citrate [Comparative example 4, reference compound]” showed a Specific surface area (humidity control drying (30° C., 60 RH %) of wet material containing 60.2% by mass of acetone, no reduced-pressure drying) of 11.0 m^2/g.
In turn, ferric citrate [Example 1] had a Specific surface area under setting [2] of 38.3 m^2/g.
ferric citrate [Example 12] had a Specific surface area under setting [2] of 30.2 m^2/g.
Same read-out and setting: the figure for ferric citrate [Example 15] is 39.0 m^2/g; for ferric citrate [Example 17] it is 24.5 m^2/g; for ferric citrate [Example 13] it is 38.7 m^2/g.
In the case of ferric citrate [Example 7], under setting [2], the Specific surface area is on record as 36.8 m^2/g.
On to ferric citrate [Example 16], for which the Specific surface area under setting [2] was 88.7 m^2/g.
Under setting [2], ferric citrate [Example 18] displayed a Specific surface area of 66.4 m^2/g.
As for ferric citrate [Example 2], the Specific surface area under setting [2] was 39.9 m^2/g.
Still for that read-out and setting: the figure for ferric citrate [Example 3] is 40.1 m^2/g; for ferric citrate [Example 10] it is 32.3 m^2/g; for ferric citrate [Example 11] it is 31.4 m^2/g.
The same measure, in the same setting: the figure for ferric citrate [Example 4] is 31.1 m^2/g; for ferric citrate [Example 8] it is 36.8 m^2/g.
ferric citrate [Example 14] registered a Specific surface area under setting [2] of 38.5 m^2/g.
The substance ferric citrate [Example 19] had a Specific surface area under setting [2] of 47.8 m^2/g.
